Biological target: T1, human TNF-α (human, UniProt P01375 77-233)
T1 construct: also called TNF alpha
Assay: plate ELISA, cytokine coated, antibody titrated

Amino acid sequences for entries named in this document (tags omitted). Residues count along the entry.
UniProt P01375, 77-233 limits assumed: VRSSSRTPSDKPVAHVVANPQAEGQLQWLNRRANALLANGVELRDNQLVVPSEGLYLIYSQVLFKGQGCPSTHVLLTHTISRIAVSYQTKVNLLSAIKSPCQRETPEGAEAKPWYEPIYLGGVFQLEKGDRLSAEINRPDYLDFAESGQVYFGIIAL

B1: anti-TNF-α infliximab antibody (antibody, V domains shown)
VH: EVKLEESGGGLVQPGGSMKLSCVASGFIFSNHWMNWVRQSPEKGLEWVAEIRSKSINSATHYAESVKGRFTISRDDSKSAVYLQMTDLRTEDTGVYYCSRNYYGSTYDYWGQGTTLTVSS
VL: DILLTQSPAILSVSPGERVSFSCRASQFVGSSIHWYQQRTNGSPRLLIKYASESMSGIPSRFSGSGSGTDFTLSINTVESEDIADYYCQQSHSWPFTFGSGTNLEVKR
In the case of B1, the EC50 is reported as 0.04 ng/mL.

Reference: patent US20260210971A1 (Pfizer, published 2026)
